Source: patent US11174252B2, “Heterocyclic compounds as kinase inhibitors” (priority 2018, dated 2021)

Chains of the proteins cited; added tags and fusions are not shown. Residues count along the entry.
UniProt P11802, whole entry: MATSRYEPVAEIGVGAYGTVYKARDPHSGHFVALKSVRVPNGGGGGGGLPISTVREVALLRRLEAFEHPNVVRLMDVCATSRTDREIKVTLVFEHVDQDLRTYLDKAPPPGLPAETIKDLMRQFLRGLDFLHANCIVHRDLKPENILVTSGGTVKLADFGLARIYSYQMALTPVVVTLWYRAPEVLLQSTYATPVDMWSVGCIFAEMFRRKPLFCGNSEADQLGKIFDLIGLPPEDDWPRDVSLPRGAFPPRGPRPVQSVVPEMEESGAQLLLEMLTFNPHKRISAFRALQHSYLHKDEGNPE
UniProt Q00534, whole entry: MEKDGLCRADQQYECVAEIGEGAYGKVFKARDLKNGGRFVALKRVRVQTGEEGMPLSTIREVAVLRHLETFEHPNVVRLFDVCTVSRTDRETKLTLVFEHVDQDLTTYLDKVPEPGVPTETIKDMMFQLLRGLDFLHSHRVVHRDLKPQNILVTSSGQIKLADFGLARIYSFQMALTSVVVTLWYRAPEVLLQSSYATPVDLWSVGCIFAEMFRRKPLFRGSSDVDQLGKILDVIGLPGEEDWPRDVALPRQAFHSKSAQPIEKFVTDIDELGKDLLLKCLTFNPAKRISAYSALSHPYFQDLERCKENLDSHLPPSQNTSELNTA
UniProt P07333, 20-972 limits assumed: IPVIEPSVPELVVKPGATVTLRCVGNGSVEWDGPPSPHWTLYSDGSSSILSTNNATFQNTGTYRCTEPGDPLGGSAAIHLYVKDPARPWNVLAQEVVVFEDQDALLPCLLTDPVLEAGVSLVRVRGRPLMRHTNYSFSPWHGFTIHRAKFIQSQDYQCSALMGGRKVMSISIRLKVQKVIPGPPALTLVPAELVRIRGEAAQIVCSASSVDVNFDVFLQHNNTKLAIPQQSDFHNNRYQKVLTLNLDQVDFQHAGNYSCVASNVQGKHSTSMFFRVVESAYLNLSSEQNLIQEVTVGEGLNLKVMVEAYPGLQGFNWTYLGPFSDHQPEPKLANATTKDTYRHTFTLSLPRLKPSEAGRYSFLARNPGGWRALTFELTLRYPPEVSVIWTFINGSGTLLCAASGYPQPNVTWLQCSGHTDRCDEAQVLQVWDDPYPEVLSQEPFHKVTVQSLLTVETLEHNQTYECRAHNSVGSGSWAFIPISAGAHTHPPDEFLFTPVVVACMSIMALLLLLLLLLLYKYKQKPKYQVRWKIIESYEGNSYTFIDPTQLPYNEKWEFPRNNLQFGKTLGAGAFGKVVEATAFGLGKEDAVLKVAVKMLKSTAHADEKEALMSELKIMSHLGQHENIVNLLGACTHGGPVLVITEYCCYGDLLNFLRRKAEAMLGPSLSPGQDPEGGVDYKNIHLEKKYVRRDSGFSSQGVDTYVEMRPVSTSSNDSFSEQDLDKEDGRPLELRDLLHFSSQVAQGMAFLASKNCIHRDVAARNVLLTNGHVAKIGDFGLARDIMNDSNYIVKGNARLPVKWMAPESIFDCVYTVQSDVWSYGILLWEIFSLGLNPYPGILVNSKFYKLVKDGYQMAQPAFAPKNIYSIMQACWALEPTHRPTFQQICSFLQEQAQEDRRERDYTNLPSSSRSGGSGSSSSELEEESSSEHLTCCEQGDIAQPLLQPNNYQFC
UniProt P24385, whole entry partner: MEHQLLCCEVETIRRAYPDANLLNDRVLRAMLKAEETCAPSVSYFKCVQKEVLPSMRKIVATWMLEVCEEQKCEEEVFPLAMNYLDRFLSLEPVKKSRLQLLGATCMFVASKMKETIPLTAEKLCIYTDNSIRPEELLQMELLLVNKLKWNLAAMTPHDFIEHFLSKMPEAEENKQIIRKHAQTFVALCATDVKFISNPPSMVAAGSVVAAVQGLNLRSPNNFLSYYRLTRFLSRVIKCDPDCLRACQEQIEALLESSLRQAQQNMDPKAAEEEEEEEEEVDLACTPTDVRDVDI

Key:
[1] = biological target: CDK4 (Homo sapiens (Human), UniProt P11802); experiment: In vitro kinase inhibition, luminescence (ADP-Glo) with retinoblastoma substrate; assay type: biochemical; conditions: read-out: CDK4 IC50
[2] = biological target: CDK6 (Homo sapiens (Human), UniProt Q00534); experiment: as above; assay type: biochemical; conditions: read-out: CDK6 IC50
[3] = biological target: FMS kinase (Homo sapiens (Human), UniProt P07333); experiment: LanthaScreen kinase assay (ATP, fluorescent-PolyGT substrate, TR-FRET); assay type: biochemical; conditions: read-out: FMS IC50
[4] = system: MCF-7; experiment: Cancer cell proliferation assay, single agent; assay type: cell-based; conditions: read-out: IC50 (nM) MCF-7; MCF-7 cells; treated for 24-168 hours

What does the source list for “5-fluoro-N-(3-fluoro-4-(4-(pyrrolidin-1-yl) piperidin-1-yl) phenyl)-6-(8-fluoro-4-isopropyl-3,4-dihydro-2H-benzo[b][1,4]oxazin-6-yl)pyridin-2-amine”?
IC50 [1]: 1 nM; IC50 [2]: 5 nM; IC50 [3]: 7.5 nM; IC50 [4]: 40 nM

Only a part of the results on these compounds is given; other tests are left out.
